Experimental data from patent US20260226128A1, “Capped Peptides and Methods for Using the Same” (The Board of Trustees of the Leland Stanford Junior …, priority 2023, published 2026).

Assay: Half-life of peptides incubated in mouse plasma, levels by LC-MS
Settings: 10 µM peptide, 37° C.
Protocol: FIG. 4. […] (A) Schematic and annotation of the primary amino acid sequence for full-length mouse TAC1 preproprotein and its cleavage products. […] For (B), N=2 per concentration; for (C), N=3 per condition. For (B,C), data are shown as means±SEM. * P<0.05, ** P<0.01 versus control by Student's t-test.
Half-life calculations of CAP-TAC1 in plasma. 10 µM of either synthetic CAP-TAC1 or SP was incubated with 100 μl of mouse plasma. Samples were incubated at 37° C. for 0, 10, 30, 60, or 90 minutes (N=3 for each time point). At the indicated time point, 1 μl of HALT protease inhibitor was immediately added, and plasma was boiled and prepared using the peptidomics workflow described above. […] Half-lives were calculated using an exponential decay fit.

Substance: substance P [reference compound]
- peptide level in mouse plasma after 90 min (90 min): undetectable
- t1/2 of degradation in mouse plasma (exponential decay fit): 8.4 min
